E-selectin induc: E-selectin induction on HUVECs. AID 686992. HUVEC E-selectin immunofluorescence imaging; normalized: neutral wells 0, TNF-alpha wells 100. activation, % at 7.58 µM. actives 0.37% (n = 260,000). P16581;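 active = mean E-selectin-positive cell signal at least 10% of the positive control, reached in at least 60% of replicates, without over 20% cell loss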
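Read-out: % PE-positive cells | Test system: HUVEC | Doses: One compound dose added by pin transfer | Buffer or medium: EGM-2 over gelatin coat | Signal: Immunofluorescence imaging | Benchmarks: TNF-alpha, DMSO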
Yeast UUG start: yeast start codon fidelity modulation; activity score, % at 18.7 µM; actives 0.13% (n = 350,000); S. cerevisiae UUG-firefly luciferase reporter, luminescence/redox ratio; AID 602363;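 active means replicate mean at a twofold rise or more, about +100% in these data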;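 further: firefly luciferase made from a UUG start codon reports start codon fidelity; reporter light over untreated wells divided by growth signal over untreated wells; some hits fall short of that in this replicate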
MLL AF4-AF9 inh: blocks AF4 peptide binding to human AF9. P42568. AlphaScreen, biotin-AF4 peptide binding to FLAG-AF9. inhibition, % at 10 µM. actives 0.47% (n = 350,000);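 active = every replicate reaching a set inhibition limit, whatever the replicate mean, cut at about 25% in these data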;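 note: 0% = plate neutral control median and 100% = total signal loss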
RAD52 anneal inh: blocks human RAD52 DNA annealing; P43351; recombinant RAD52 DNA annealing, FRET fluorescence; actives 0.46% (n = 360,000); inhibition, % at 18.7 µM;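 active = every replicate showing at least 50% inhibition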
RAD54 inh: blocks human RAD54 Holliday junction branch migration | FAM/BHQ fluorescence | actives 0.14% (n = 360,000) | inhibition, % at 10.4 µM | Q92698;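 active = mean normalized replicate activity at least 40 and at least half of replicates scoring 40 or more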;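 note: 0% = median of neutral control wells and 100% = median of positive control wells; inhibitors cause a drop in the FAM fluorescence signal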
SIRT5 inh: blocks human SIRT5 desuccinylation of peptide | actives 1.1% (n = 330,000) | Purified SirT5, succinyl-peptide AMC, trypsin-coupled fluorescence | AID 652115 | Q9NXA8 | inhibition, % at 15 µM; in the data active = inhibition above about 15%
Starred values were filed as active, the others as inactive; . = no result; ! = not active in a repeat. Rows were chosen to be rich in hits. Some 1.8% of all compounds tested hit in one or more screens of this group.

molecule,E-selectin induc,Yeast UUG start,MLL AF4-AF9 inh,RAD52 anneal inh,RAD54 inh,SIRT5 inh
COCC#Cc1cnc2c(c1)C(=O)N([C@H](C)CO)C[C@H](C)[C@@H](CN(C)Cc1ccc(F)cc1)O2,1,-11,0,-9,3,-8
CCCNC(=O)C[C@H]1CC[C@@H]2[C@H](COc3ccc(NC(=O)CCC)cc3C(=O)N2C)O1,0,-7,-1,-7,0,0
Cc1cccc(N2CCN(c3nc4ccc(Cl)cc4n4cnnc34)CC2)c1C,152*,-20,2,-1,0,12
CCC(=O)N1[C@H](CO)[C@H]2c3ccccc3N(S(=O)(=O)c3ccccc3C)C[C@H]21,0,-2,-1,-3,-4,-1
CCOc1ccc(CCN2C(=O)C(=O)N([C@@H](Cc3ccccc3)CN3CCC[C@@H]3CN3C(=O)C(=O)NC[C@@H]3Cc3ccc(O)cc3)C[C@@H]2Cc2ccccc2)cc1,0,-8,1,-11,7,38*
COc1cc(/C=C(\C#N)C(=O)Nc2cccc(C(=O)O)c2)ccc1OCc1ccc(F)cc1,0,-18,3,-14,-14,2
COc1cc(/C=C(/C#N)C(=O)Nc2cc(C(F)(F)F)ccc2Cl)ccc1OCC(=O)Nc1cccc(C(F)(F)F)c1,0,.,2,-47,.,16*
S=C(NCCCN1CCOCC1)N1CCN(c2nc(-c3ccc(Cl)cc3)cs2)CC1,0,-8,33*,-34,2,2
CCCN1CCC(=O)N([C@H](CSc2ccc(OC)cc2)c2ccccc2)CC1,.,-14,0,-24,-12,21*
COc1ccc(NC(=O)N2C[C@@H](O)COC[C@H]3O[C@@H](CC(=O)N4CCCCC4)CC[C@@H]32)cc1,0,2,0,10,6,4
CCC(C)C(CO)NCCCn1cnc2c(SC)ncnc21 (stereo unspecified),0,-7,1,-8,-4,26*
O=C(CCSCCc1ccccn1)Nc1c(F)cc(F)cc1Br,0,-23,.,.,-11,.

The closing two entries of the section above open the next one.
molecule,E-selectin induc,Yeast UUG start,MLL AF4-AF9 inh,RAD52 anneal inh,RAD54 inh,SIRT5 inh
CCC(C)C(CO)NCCCn1cnc2c(SC)ncnc21 (stereo unspecified),0,-7,1,-8,-4,26*
O=C(CCSCCc1ccccn1)Nc1c(F)cc(F)cc1Br,0,-23,.,.,-11,.
Cc1csc(NC(=O)CCSCCc2ccccn2)n1,0,-15,42*,1,-16,0
Cc1csc(NC(=O)Cc2ccccc2[N+](=O)[O-])n1,1,.,2,6,.,17*
CCOC(=O)Cc1csc(NC(=O)Cc2ccccc2[N+](=O)[O-])n1,.,.,2,-5,.,-4
CCC(=O)N1C[C@H]2[C@@H](c3ccccc31)[C@@H](CO)N2C(=O)Nc1ccccc1,0,4,-1,-11,12,9
CC(C)NC(=O)N1[C@@H]2CNC[C@H]1C2c1ccc(/C=C/c2ccccc2)cc1 (stereo partly specified),0,.,2,34,.,2
COc1cccc(NC(=O)N2[C@@H]3CNC[C@H]2C3c2ccc(/C=C/c3ccccc3)cc2)c1 (stereo partly specified),0,.,21,54*!,.,3
O=C(Nc1cccc(Cl)c1)N1[C@@H]2CNC[C@H]1C2c1ccc(/C=C/c2ccccc2)cc1 (stereo partly specified),0,.,0,60*!,.,-4
COc1cccc(NC(=O)N2[C@@H]3CNC[C@H]2C3c2ccc(-c3ccccc3)cc2)c1 (stereo partly specified),1,.,5,47,.,-6
CN(C)C(=O)c1ccc(-c2ccc(C3[C@H]4CNC[C@@H]3N4C(=O)Nc3cccc(Cl)c3)cc2)cc1 (stereo partly specified),0,.,5,56*,.,.
CN(C)C(=O)c1cccc(-c2ccc(C3[C@H]4CNC[C@@H]3N4C(=O)Nc3cccc(Cl)c3)cc2)c1 (stereo partly specified),0,.,5,-65,.,3
COc1ccc(NC(=O)N2[C@@H]3CNC[C@H]2C3c2ccc(-c3ccccc3C)cc2)cc1 (stereo partly specified),0,.,5,64*!,.,-5
Cc1noc(C)c1S(=O)(=O)N(C)C[C@@H]1OCCCC[C@H](C)Oc2ccc(NC(=O)CCCN(C)C)cc2C(=O)N([C@H](C)CO)C[C@H]1C,0,.,-2,12,.,-11
COc1cccc(-c2ccc(C3[C@H]4CNC[C@@H]3N4C(=O)Nc3ccc4c(c3)OCO4)cc2)c1 (stereo partly specified),0,.,20,71*,.,4
COc1ccccc1NC(=O)c1ccc(S(=O)(=O)N2CCOCC2)cc1,.,11,.,.,-16,.
COc1cccc2sc(NC(=O)c3ccc(S(=O)(=O)N4CCOCC4)cc3)nc12,.,-5,-29,-4,4,15*
O=C1CN(C(=O)COc2cccc(F)c2)c2ccccc2N1,.,.,-6,2,.,18*
COc1ccc(/C=C/C(=O)OCC(=O)N2CC(=O)Nc3ccccc32)cc1,.,1,.,.,-14,.
O=C1CN(C(=O)COC(=O)c2cccs2)c2ccccc2N1,80*,-19,0,-13,2,-13
CCCCOc1ccc(/C=C/C(=O)OCC(=O)N2CC(=O)Nc3ccccc32)cc1OCC,.,.,1,-16,.,17*
Nc1cccc2c(O)cc(S(=O)(=O)O)cc12,.,-14,.,.,-34,.
Nc1cc(S(=O)(=O)O)cc([N+](=O)[O-])c1O,2,.,-4,-11,.,30*
Cc1cccc(C)c1NC(=O)N1CCCCCCC1,0,.,-1,-14,.,28*
Cc1cccc(C)c1NC(=O)N1CC=CCC1,0,-7,-4,-12,-16,-2
COC(=O)c1ccc(CN2CC(=O)N3[C@@H](CO)[C@@H](c4ccc(Br)cc4)[C@@H]3C2)cc1,-1,.,3,-8,.,-4

Pulled by structure from the entries so far (three):
molecule,E-selectin induc,Yeast UUG start,MLL AF4-AF9 inh,RAD52 anneal inh,RAD54 inh,SIRT5 inh
O=C(CCSCCc1ccccn1)Nc1c(F)cc(F)cc1Br,0,-23,.,.,-11,.
COc1ccc(NC(=O)N2[C@@H]3CNC[C@H]2C3c2ccc(-c3ccccc3C)cc2)cc1 (stereo partly specified),0,.,5,64*!,.,-5
Cc1cccc(C)c1NC(=O)N1CC=CCC1,0,-7,-4,-12,-16,-2

(more compounds)
molecule,E-selectin induc,Yeast UUG start,MLL AF4-AF9 inh,RAD52 anneal inh,RAD54 inh,SIRT5 inh
O=C(c1cnccn1)N1CC(=O)N2[C@H](CO)[C@@H](c3ccc(C#CC4CCCCC4)cc3)[C@H]2C1,0,.,6,5,.,1
C[C@H]1CN([C@@H](C)CO)C(=O)c2cc(NC(=O)Nc3ccc4c(c3)OCO4)ccc2O[C@@H]1CN(C)S(=O)(=O)c1ccc(F)cc1,50*,-8,5,10,-9,2
C[C@H](CO)N1C[C@H](C)[C@H](CN(C)S(=O)(=O)c2ccc(F)cc2)Oc2ccc(NC(=O)Nc3ccc4c(c3)OCO4)cc2C1=O,-16,-10,6,4,3,5
C[C@@H]1CN([C@H](C)CO)C(=O)c2cc(NC(=O)Nc3ccc4c(c3)OCO4)ccc2O[C@H]1CN(C)S(=O)(=O)c1ccccc1,34*,6,6,-7,1,1
COc1ccc(NC(=O)Nc2ccc3c(c2)C(=O)N([C@H](C)CO)C[C@H](C)[C@H](CN(C)S(=O)(=O)c2ccc(F)cc2)O3)cc1,7,0,.,.,0,.
COc1ccc(NC(=O)Nc2ccc3c(c2)C(=O)N([C@H](C)CO)C[C@@H](C)[C@@H](CN(C)S(=O)(=O)c2ccc(F)cc2)O3)cc1,40*,4,.,.,2,.
